Measured values taken from article PMC3103057 (Journal of medicinal chemistry, 2011).

Test system: wildtype and homozygous mutant N370S GC fibroblasts
Experiment: Chaperone activity: translocation of GC to the lysosome in fibroblasts
Type: cell-based, human

SMILES: Cc1ccc(S(=O)(=O)N2CCN(c3ncnc4ccccc34)CC2)cc1 [Compound 62, 4-(4-Tosylpiperazin-1-yl)quinazoline]
- amount of GC localized to the lysosome: clear increase of the amount of GC localized to the lysosome
